The nature of the assay: Selectivity expressed as the ratio of pEC50 (SLPD) and pEC50 (FSLPD). It is filed as functional.

Take `CCC(C)(C)/N=C(\NC#N)Nc1cccnc1`: the Selectivity turned out to be 3.9.

These data come from ChEMBL document CHEMBL1148324 (J Med Chem, 2004).
